This is an account of results in article PMC10291551, “Characterization of a Potent and Orally Bioavailable Lys-Covalent Inhibitor of Apoptosis Protein (IAP) Antagonist” (Journal of Medicinal Chemistry, 2023).

Data set [1] has as its system MDA-MB-231 NucLight Red cells. As to the kind of experiment: 3D spheroid culture cell-killing assay (IncuCyte S3). The settings on record: Homo sapiens, MDA-MB-231, 144 h, read-out: EC50 3D culture (red fluorescence intensity). Format: cell-based.
On the set-up of data set [2]: method as in PMID 31550155. The settings on record: cited from earlier work.
For data set [3], the system named is MDA-MB-231 NucLight Red cells. Kind of data set: cells. The following applies: Homo sapiens, MDA-MB-231, 24 h, read-out: EC50 apoptosis (caspase-3/7 activity).
For data set [4] the following is noted: aqueous buffer pH = 7.5, T = 25 °C; cited from earlier work.

The structures appear in SMILES notation.

As to `CN[C@@H](C)C(=O)N[C@H](C(=O)N1CCC[C@H]1C(=O)N[C@@H]1CCc2c(OS(=O)(=O)F)cccc21)C1CCCCC1` [142D6, (R)-1-((S)-1-((S)-2-cyclohexyl-2-((S)-2-(methylamino)propanamido)acetyl)pyrrolidine-2-carboxamido)-2,3-dihydro-1H-inden-4-yl sulfurofluoridate], the EC50 was found to be 94.2 ± 6.2 nM in data set [1] and 61 ± 12 nM in data set [3]. Also, the “plasma stability t1/2” value in data set [2] is greater than 2 h. For the same compound, in data set [4], the “stability in aqueous buffer (long-lived)” value was “several hours”.
